Results: patent publication US7498029B2, “Photoimmunotherapies for cancer using combination therapies” (The General Hospital Corporation, priority 2001, dated 2009)

Columns and labels:
EGFR-negative NR6 cells = assay: Cellular uptake of PICs, NR6 cells; format: cell-based, mouse; conditions: PICs with 4 BPD per antibody
Protocol: Cellular uptake studies were conducted to evaluate targeting specificity of the PICs. Cells were plated in 2 ml of media in 35 mm tissue culture dishes at densities such that the cells reached ˜90% confluence at the end of a three-day growth period. Following an initial period of at least 14 to 20 hours, which allowed for cells to attach and begin dividing, incubation with PICs or free BPD was initiated by replacing the original 2 ml of media with 2 to 4 ml of media containing PIC or free BPD. From this point onward, cells were handled under low light conditions to avoid photosensitizing the cells or photobleaching the photosensitizer. […] Cell samples were then collected and analyzed. […] In order to quantitate the BPD content of the cell suspensions, the fluorescence emission intensities of the solubilized cell suspensions were compared to those of free BPD standards. Fluorescence measurements were performed as previously described. […] 0.5 ml of each solubilized cell sample was mixed with 2 ml of 1 M NaOH/1% SDS in a disposable fluorimeter cuvette to measure BPD content via fluorescence quantitation. […] The value of this parameter, which varied for the different cell lines, was measured in the following manner. First, 1 ml cell suspensions in culture medium, prepared from one set of control cell dishes, were counted using a hemacytometer. […]

CHO-EGF cells = assay: PDT/PIT phototoxicity, MTT assay, CHO-EGF cells; format: cell-based; conditions: CHO-EGFR cells; red light
Protocol: This light was focused to a spot of 3.5 cm diameter, which corresponded to a power density of circa 40 mW/cm^2.
To determine the survival fraction of cells after treatment, the 3-(4,5-dimethylthiazol-2-yl)-2,5-diphenyltetrazolium bromide (“MTT”) assay, which measured mitochondrial dehydrogenase activity, was used. Cells were incubated with 0.5 mg/ml MTT for 1 hour to measure its reduction by mitochondrial dehydrogenases.

C225 PIC
uptake by NR6 cells (EGFR-negative NR6 cells): not by the EGFR-negative NR6 cells | light dose for 50% decrease in viability (CHO-EGF cells): 6.5 J/cm^2
